Yeast mating assay 1: variants of the scFv Ab-14

Reference: Engelhart et al. 2022, doi:10.1038/s41597-022-01779-4. File: FLAb, binding data.

Antigen: PDVDLGDISGINAS, a 14-residue peptide of the SARS-CoV-2 spike HR2 region.

Ab-14 is the parent antibody, in scFv form: VH, then a 15-residue (Gly4Ser)3 linker, then VL. The light chain is unchanged in all variants.
VH: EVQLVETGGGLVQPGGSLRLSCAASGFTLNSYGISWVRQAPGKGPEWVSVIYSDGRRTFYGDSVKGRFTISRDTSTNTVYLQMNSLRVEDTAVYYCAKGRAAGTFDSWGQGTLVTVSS
VL: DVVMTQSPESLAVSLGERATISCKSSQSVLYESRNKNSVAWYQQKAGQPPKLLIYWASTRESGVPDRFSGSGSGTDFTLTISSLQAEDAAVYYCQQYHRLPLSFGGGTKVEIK

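The library (AAYL49) carries one to three amino acid substitutions per variant, with no insertions or deletions. In AlphaSeq, yeast of one mating type display the scFv and yeast of the other type display the target. Mating (16 h, 30 °C) was followed by selection of diploids and sequencing of their barcodes. Each replicate has its own calibration line, from reference interactions of the BCL2 family. Mating was done three times.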

Each variant is given by its three heavy chain CDRs, as the data file delimits them; those of the parent are GFTLNSYGIS, VIYSDGRRTFYGDSVK, GRAAGTFDS.
The read-out is the apparent dissociation constant on a log10 scale (nM): the lower, the stronger.
Where no diploid with the target was found in that replicate, the entry reads "n.d.": below detection, most likely a poor binder, though not proof of it.

CDR-H1	CDR-H2	CDR-H3	log10 Kd (nM) by replicate	control signals
GFTLNSYGIS	VIYSMGRPTFYGDSVN	GRAAGTFDS	2.97 n.d. n.d.	2/9 (3.94)
GFTLNSYGIS	VIISDGRRIFYGDSVK	GRAAGTFDS	n.d. 3.92 n.d.	2/9 (4.04)
GFTLNSYGIS	VICSDGRRTFGGKSVK	GRAAGTFDS	n.d. n.d. 4.49	4/9 (3.43)
GFALNSYGIS	VIYSDGRRTFAGDSVK	TRAAGTFDS	n.d. 3.39 n.d.	0/9
GFTLNSYGIS	VIYSDLRRTFYGDSVK	GRAAATFDH	n.d. 5.34 n.d.	1/9 (4.31)
GFTLNSAGIS	VIYSDGRRTFEGDSVK	GRPAGTFDS	4.58 n.d. n.d.	0/9
GFTLNSYGIS	VISSIGRRTFYGDSVK	GRRAGTFDS	n.d. n.d. n.d.	1/9 (3.35)
GVTLNSYNIS	VIYSNGRRTFYGDSVK	GRAAGTFDS	n.d. n.d. n.d.	0/9
GFTQNSYGIS	VIYSDGRRTFYHDSVK	GRAAGTFDS	n.d. n.d. n.d.	0/9
GFTNNSYGIS	VCYSDGRRTFYGDSYK	GRAAGTFDS	n.d. n.d. n.d.	2/9 (3.31)
GFTLNSYGIS	VQYSDGLRTFYGDSVK	GRAAGTRDS	n.d. n.d. n.d.	0/9
DFTLNSYDIS	MIYSDGRRTFYGDSVK	GRAAGTFDS	n.d. n.d. n.d.	2/9 (3.55)
GFTLESYGIS	VIYSDGRRGFYGDSVK	GRAEGTFDS	4.90 3.08 n.d.	3/9 (3.60)
GFTLNSYGIV	VIYSDGRRTFYGDSVV	GRAAGCFDS	n.d. n.d. n.d.	1/9 (4.98)
GFTDNSYGIS	VIYTDGRRTFYGDSVT	GRAAGTFDS	n.d. n.d. n.d.	0/9
FFTLNSYGIS	VIYSDGRRTFYGDTVK	GRAAGPFDS	n.d. n.d. n.d.	0/9
GFTLNSYGIE	VIYSDGRRTFYGDSVW	GRAAGTFDS	n.d. n.d. n.d.	1/9 (3.27)
GFTLNSYGYS	VIYSDGRRTFYGDSVK	GCAAGTFDA	n.d. 4.15 6.34	4/9 (4.31)
GFTLNSFGIS	VIYSDGRRFFYGDSVA	GRAAGTFDS	2.16 1.28 1.12	0/9
GFTLNSYGIS	VIYSDMRRTFYGFSVK	GRAAGTFYS	n.d. 4.25 n.d.	1/9 (4.18)
GFTLNSYGIS	VIYSDGRRTFYGDSFK	MRAGGTFDS	n.d. n.d. n.d.	0/9
GFTLNSYDIS	NIYSDGRRPFYGDSVK	GRAAGTFDS	3.65 n.d. n.d.	1/9 (3.75)
GFTLNSYGIS	VITSDGRRTFYGDSVK	GIAAGTFDS	5.24 3.49 3.02	2/9 (4.14)
GPTLNSYGIS	VKYSDGRRTFYGDSVK	GRAAGTFDA	n.d. n.d. n.d.	1/9 (4.24)
GFTLNSYGIS	VIYSDGRRTFYGDSVK	GEDAGFFDS	0.58 0.54 0.56	2/9 (4.52)
GFTLNSYGQS	VIKSDGRRTFYGDSVK	QRAAGTFDS	n.d. n.d. n.d.	1/9 (4.52)
GFTDNSYGIS	VIYSDGRRTFYGDSVK	GRAAGPFDS	n.d. 2.14 n.d.	0/9
GFQLNMYGIS	VIYSDGRRTFLGDSVK	GRAAGTFDS	2.65 2.14 2.83	1/9 (4.85)
DFTLNSYGNS	VIYSDGRRTFYGDYVK	GRAAGTFDS	n.d. n.d. n.d.	2/9 (4.55)
KFTLNSYGIS	VIYSDGRCTFYGDSVK	TRAAGTFDS	4.10 3.30 n.d.	0/9
GFDTNSYGIS	VIYSDGRRTFYGDSVK	GRAHGTFDS	n.d. n.d. n.d.	0/9
GRTLNSYGIS	VIYPDGRRTFYGDSKK	GRAAGTFDS	n.d. 3.90 5.25	5/9 (4.21)
GFTLNSYGIS	VIWSDGRRTFYGDSVK	GRADGTFDM	n.d. n.d. n.d.	0/9
GFTLNSYCIS	VIYSDGRRTFFGDSVK	GRAAGTFDI	n.d. 5.68 6.46	3/9 (5.26)
GFTCNSYGSS	VIYSDSRRTFYGDSVK	GRAAGTFDS	4.63 n.d. 3.92	3/9 (4.45)
GFTLRSYGIN	VIYSDGRRTFYGDSVK	GRAAKTFDS	n.d. n.d. n.d.	2/9 (3.17)
GFTLNSYGIS	VIYSAGRRTFYGDDVK	GRFAGTFDS	n.d. n.d. n.d.	0/9
GFALNSYGIS	VIYSDGRRTFYGDSVK	GRAAGTFDS	5.67 4.94 n.d.	4/9 (4.39)
GFTLNSYGIS	VIYSDGRRTFYGDSVK	GLAAGMFDM	1.09 1.38 1.29	1/9 (3.49)
GFTLNSYGIR	VIYSDGRRTFYGKSVK	GRAAGTFDS	n.d. n.d. n.d.	2/9 (3.28)
GFTLNSYVIS	VIYSDGRRTFYGDSVK	IRAAVTFDS	n.d. n.d. n.d.	0/9
GFTLNSYSIS	VIYMDGRWTFYGDSVK	GRAAGTFDS	n.d. n.d. n.d.	0/9
GFTLASYIIS	VIYSDGRRTFYGDSVK	GRAAGTTDS	n.d. n.d. n.d.	2/9 (4.80)
GFTLNSYGNS	VIYSDGRRTFYGDSVI	GRAAGTFDS	n.d. n.d. n.d.	0/9
IFTLNSYGIS	VIYSDGRRTFYGDSVK	GRAAHTFDS	n.d. n.d. n.d.	1/9 (2.43)
GFTLYSYGIS	VIYSDGRRTWYGDSYK	GRAAGTFDS	n.d. 3.67 3.98	3/9 (4.80)
GFTLNSYGIS	VIYSDGRRDFYGDSVK	GRTAGTFDN	3.73 2.56 3.00	3/9 (4.30)
GFTLNSYGIS	VIYSDGCRNFYGDSVK	GRAAGTFYS	n.d. n.d. n.d.	0/9
GFTLNSYKIS	VIYSDFRRTKYGDSVK	GRAAGTFDS	n.d. n.d. n.d.	1/9 (3.72)
GFTLNSYGVS	VHYSDGRRTFYGDSVK	GRAANTFDS	n.d. n.d. n.d.	0/9
GFTLNSYGIS	VIYSDGRRTFDGDSVK	GRAAGTFPF	2.74 4.79 n.d.	0/9

Extract of 6 entries:

CDR-H1	CDR-H2	CDR-H3	log10 Kd (nM) by replicate	control signals
KFTLNSYGIS	VIYSDGRCTFYGDSVK	TRAAGTFDS	4.10 3.30 n.d.	0/9
DFTLNSYDIS	MIYSDGRRTFYGDSVK	GRAAGTFDS	n.d. n.d. n.d.	2/9 (3.55)
GFTNNSYGIS	VCYSDGRRTFYGDSYK	GRAAGTFDS	n.d. n.d. n.d.	2/9 (3.31)
GFTQNSYGIS	VIYSDGRRTFYHDSVK	GRAAGTFDS	n.d. n.d. n.d.	0/9
GFTLNSYVIS	VIYSDGRRTFYGDSVK	IRAAVTFDS	n.d. n.d. n.d.	0/9
GFTLNSYCIS	VIYSDGRRTFFGDSVK	GRAAGTFDI	n.d. 5.68 6.46	3/9 (5.26)

Three control strains display no target. For library AAYL49, 15% of the pairings with them gave a signal, with a median of 4.06 and one signal in twenty below 2.83, so weak values seen in few replicates may be background. For each scFv, signals with the empty controls are counted beside the result, with their mean in brackets.
For reference, the parent read 0.65 as the reference entry and 4.11 (one replicate of three) as a member of this library.